Patent US6979572B1, “Compositions and methods for inhibiting inward-rectifier potassium channels” (Trustees of the University of Pennsylvania, priority 1998, dated 2005)

Experiments:
[1] = biological target: T1, ROMK1 P120A channel (Rattus norvegicus, UniProt P35560, P120A); experiment: Two-electrode voltage clamp of ROMK1 mutant P120A (equilibrium and kinetics); format: cell-based; settings: averaged 1/τoff
T1 construct: expressed in transfected cells; host or cells: Xenopus laevis oocytes (cRNA injection)
T1 sequence (P35560 1-391 P120A): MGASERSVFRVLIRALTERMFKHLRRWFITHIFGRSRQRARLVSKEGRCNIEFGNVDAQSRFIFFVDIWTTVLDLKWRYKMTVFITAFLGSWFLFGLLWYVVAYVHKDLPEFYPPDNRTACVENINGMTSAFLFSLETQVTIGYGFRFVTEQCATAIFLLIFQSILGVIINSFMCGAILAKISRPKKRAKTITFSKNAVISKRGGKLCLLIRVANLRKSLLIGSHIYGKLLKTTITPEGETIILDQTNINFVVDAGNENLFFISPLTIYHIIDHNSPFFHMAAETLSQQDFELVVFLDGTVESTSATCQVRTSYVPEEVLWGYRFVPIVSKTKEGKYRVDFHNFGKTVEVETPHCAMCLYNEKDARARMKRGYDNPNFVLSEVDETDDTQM
Excerpt: To identify all potential interaction residues in the M1-M2 linker and thus delineate the toxin receptor, the entire M1-M2 linker in the ROMK1 channel was alanine scanned. All the residues in the M1-M2 linker were replaced one at a time with alanine, or valine when the native residue is alanine (Clackson, T. and Wells, J. A. Science 1995 267:383–386). Alanine has the smallest side-chain with the exception of glycine. Since glycine may introduce instability to a protein, an alanine substitution is generally used in an attempt to remove most side-chain interactions.
The fraction of unblocked currents through the wild-type and five mutant channels were plotted against the concentration of TPNQ. […]
The rate constant for TPNQ (and TPN) binding to the ROMK1 channel is rather large. Consequently, the rates of the channel inhibition by TPNQ at concentrations producing measurable channel inhibition were too fast to be accurately determined using the recording system described herein. […]
All three inward-rectifier K^+ channels, GIRK1/4, ROMK1, and IRK1, were studied using a two-electrode voltage clamp amplifier (Oocyte Clamp OC-725C, Warner Instruments Corp.). […] Tertiapin concentration was calculated using an extinction coefficient 6.1 mM^−1 cm^−1 at 280 nm wavelength. […]

[2] = biological target: T2, GIRK1/4 channel (Rattus norvegicus, UniProt P48548+P63251); experiment: cell-based; format: cell-based; settings: each at 10 nM; read-out: inhibition of the GIRK1/4 current
T2 construct: expressed in transfected cells; host or cells: Xenopus laevis oocytes (cRNA injection)
T2 sequence (P63251 1-501): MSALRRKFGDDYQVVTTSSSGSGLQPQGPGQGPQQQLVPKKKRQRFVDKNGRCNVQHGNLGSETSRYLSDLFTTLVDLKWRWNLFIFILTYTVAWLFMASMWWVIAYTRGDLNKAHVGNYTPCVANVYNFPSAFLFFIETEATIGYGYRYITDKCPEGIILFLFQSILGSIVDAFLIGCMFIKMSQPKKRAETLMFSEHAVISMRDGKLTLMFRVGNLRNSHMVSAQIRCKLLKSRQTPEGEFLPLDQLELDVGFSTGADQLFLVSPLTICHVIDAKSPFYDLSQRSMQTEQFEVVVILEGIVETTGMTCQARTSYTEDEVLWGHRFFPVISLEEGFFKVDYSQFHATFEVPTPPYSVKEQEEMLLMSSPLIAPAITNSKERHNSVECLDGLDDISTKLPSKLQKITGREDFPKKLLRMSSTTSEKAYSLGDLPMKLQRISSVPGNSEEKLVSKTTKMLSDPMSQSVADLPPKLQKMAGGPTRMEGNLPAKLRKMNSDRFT
T2 sequence (P48548 1-419): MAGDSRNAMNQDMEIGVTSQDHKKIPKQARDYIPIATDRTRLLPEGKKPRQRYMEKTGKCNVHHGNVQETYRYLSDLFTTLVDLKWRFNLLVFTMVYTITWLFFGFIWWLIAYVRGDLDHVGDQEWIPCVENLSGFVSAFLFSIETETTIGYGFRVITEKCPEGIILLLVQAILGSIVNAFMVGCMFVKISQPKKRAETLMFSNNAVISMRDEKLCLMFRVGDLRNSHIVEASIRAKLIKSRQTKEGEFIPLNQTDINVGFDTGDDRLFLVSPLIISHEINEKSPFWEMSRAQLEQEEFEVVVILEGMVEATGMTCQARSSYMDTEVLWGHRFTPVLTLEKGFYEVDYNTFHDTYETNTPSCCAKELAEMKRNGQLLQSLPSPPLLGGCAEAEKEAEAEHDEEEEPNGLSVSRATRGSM

| SMILES | koff [1] | inhibition at 0.01 µM [2] |
| --- | --- | --- |
| CC[C@H](C)[C@@H]1NC(=O)[C@H](CCCNC(=N)N)NC(=O)[C@H](CC(N)=O)NC(=O)[C@@H]2CSSC[C@@H](C(=O)NCC(=O)N[C@@H](CCCCN)C(=O)N[C@@H](CCCCN)C(N)=O)NC(=O)[C@H](CCCCN)NC(=O)[C@H](CCCCN)NC(=O)[C@H](Cc3c[nH]c4ccccc34)NC(=O)[C@H](CSSC[C@H](NC(=O)[C@H](CC(C)C)NC(=O)[C@H](C)N)C(=O)N[C@@H](CC(N)=O)C(=O)N2)NC(=O)[C@H](CCC(N)=O)NC(=O)[C@H](Cc2c[nH]cn2)NC(=O)[C@@H]2CCCN2C(=O)[C@H]([C@@H](C)CC)NC(=O)[C@H]([C@@H](C)CC)NC1=O [TPNQ] | 0.024 s⁻¹ | – |
| CC[C@H](C)[C@@H]1NC(=O)[C@H](CCCNC(=N)N)NC(=O)[C@H](CC(N)=O)NC(=O)[C@@H]2CSSC[C@@H](C(=O)NCC(=O)N[C@@H](CCCCN)C(=O)N[C@@H](CCCCN)C(N)=O)NC(=O)[C@H](CCCCN)NC(=O)[C@H](CCCCN)NC(=O)[C@H](Cc3c[nH]c4ccccc34)NC(=O)[C@H](CSSC[C@H](NC(=O)[C@H](CC(C)C)NC(=O)[C@H](C)N)C(=O)N[C@@H](CC(N)=O)C(=O)N2)NC(=O)[C@H](CCSC)NC(=O)[C@H](Cc2c[nH]cn2)NC(=O)[C@@H]2CCCN2C(=O)[C@H]([C@@H](C)CC)NC(=O)[C@H]([C@@H](C)CC)NC1=O [native tertiapin, tertiapin] | – | ~50% |
